## Antibody variant affinities, Ab-14 light chain, assay B

Values reported by Li et al. 2023, doi:10.1038/s41467-023-39022-2 (FLAb copy).

Target: peptide PDVDLGDISGINAS, taken from heptad repeat 2 (HR2) of SARS-CoV-2 spike.

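This is the validation round: designs drawn from the data on random variants, tested in the same kind of assay. Their group label is 14L_GP_HC (GP: Gaussian process model; HC: hill climbing; a sequence that several methods proposed may carry one label only). The assay is AlphaSeq: two haploid yeast populations carry antibody and antigen on their surface. Binding brings cells together so that they mate, and sequencing counts the barcode pairs among the diploids. A regression on co-assayed BCL2-family reference pairs converts the normalised counts of each replicate to an apparent Kd. The assay was run in six technical replicates.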

Each scFv is VH, a 15-residue (Gly4Ser)3 linker, VL, as in the parent Ab-14, and differs from it in the CDRs of the light chain only.
VH: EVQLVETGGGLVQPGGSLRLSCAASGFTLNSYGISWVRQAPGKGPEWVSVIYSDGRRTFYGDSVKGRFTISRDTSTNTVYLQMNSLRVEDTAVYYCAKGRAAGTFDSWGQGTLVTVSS
VL: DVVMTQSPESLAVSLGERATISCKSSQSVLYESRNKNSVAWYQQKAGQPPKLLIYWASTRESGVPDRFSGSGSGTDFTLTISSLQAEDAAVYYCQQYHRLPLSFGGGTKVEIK

Changes read parent residue, position, new residue, counted from the first residue of the VL shown. Affinities are written as log10 Kd with Kd in nM; a lower number is a better binder. "nd" marks a missing value. The strain was present, yet no cells mated with the target were sequenced in that replicate, which points to weak or no binding.

| changes | log10 Kd, replicates | control signals |
|---|---|---|
| K24H+S25V+Q27P+S38N+W56N | -0.30 / -0.53 / -0.45 / -0.54 / -0.44 / -0.31 | 1 of 18 (2.97) |
| Q27L+V29G+W56E | 0.75 / 0.40 / 0.23 / 0.29 / 0.35 / 0.65 | 4 of 18 (3.01) |
| K24H+S25L+Q27D+S28V+W56N | 0.27 / -0.10 / -0.12 / -0.30 / -0.15 / 0.06 | 2 of 18 (3.23) |
| S26G+W56G+S103H | 0.30 / 0.77 / 0.54 / 0.82 / 0.36 / 0.84 | 1 of 18 (1.91) |
| Q27I+V29Y+R34G+W56D | 0.79 / 0.60 / 0.92 / 0.47 / 0.36 / 0.55 | 0 of 18 |
| S25V+S26R+W56N | -0.05 / -0.31 / -0.21 / -0.39 / -0.30 / -0.16 | 1 of 18 (1.82) |
| S25F+W56N+T59L | 0.70 / 0.52 / 0.47 / 0.39 / 0.51 / 0.73 | 0 of 18 |
| S25L+S26R+V29T+W56D+E61L | 0.06 / -0.22 / -0.16 / -0.44 / -0.35 / 0.01 | 1 of 18 (3.47) |
| S25V+V29N+R34G+N35T+W56N+T59S | 0.35 / 0.07 / 0.09 / 0.06 / 0.29 / 0.30 | 2 of 18 (3.06) |
| S26P+W56H+S62D+R99Q | 0.04 / -0.08 / -0.16 / -0.22 / -0.17 / 0.10 | 1 of 18 (2.53) |
| S25L+S26P+Q27W+V29T+W56N | -0.26 / -0.48 / -0.59 / -0.51 / -0.50 / -0.21 | 1 of 18 (2.94) |
| S25L+Q27M+Y31F+W56N | 0.23 / 0.00 / -0.26 / -0.25 / -0.13 / -0.05 | 0 of 18 |
| S25L+S26R+V29T+K36P+T59Q | 0.32 / 0.40 / 0.25 / 0.46 / 0.43 / 0.54 | 0 of 18 |
| S25L+V29F+W56D+S58N | -0.09 / -0.36 / -0.48 / -0.40 / -0.22 / -0.09 | 1 of 18 (1.37) |
| Q27I+V29Y+Y31R+W56E | 0.14 / -0.34 / -0.14 / -0.42 / -0.19 / -0.04 | 1 of 18 (2.26) |
| S25I+V29F+N35W+W56G+T59Q | 0.40 / 0.38 / 0.30 / 0.03 / 0.17 / 0.58 | 2 of 18 (2.69) |
| S25E+V29W+L30W+W56G+S103M | 1.06 / 1.20 / 0.47 / 0.63 / 0.84 / 1.08 | 1 of 18 (4.33) |
| V29W+K36F+N37K+W56N | 0.40 / 0.17 / 0.17 / 0.29 / 0.08 / 0.16 | 2 of 18 (2.82) |
| K24H+S25L+Q27W+S28V+V29Y+W56N | 0.33 / 0.17 / 0.12 / 0.07 / 0.14 / 0.37 | 2 of 18 (2.85) |
| R34G+W56H+E61M+S62D | 0.63 / 0.39 / 0.35 / 0.23 / 0.26 / 0.76 | 1 of 18 (2.97) |
| Q27L+V29Y+W56A | 0.05 / 0.16 / 0.14 / 0.02 / -0.07 / 0.07 | 3 of 18 (2.37) |
| S25L+W56D+Q95A+L102S | nd / nd / nd / nd / nd / nd | 0 of 18 |
| S25V+S26L+L30D+S33G+W56H+S62D | 0.54 / 0.33 / 0.42 / 0.42 / 0.41 / 0.74 | 0 of 18 |
| S25L+V29Q+S33D+N35V+W56G | 0.22 / -0.02 / 0.01 / -0.13 / -0.11 / 0.10 | 2 of 18 (2.75) |
| S26Y+Q27W+V29F+W56E | 0.44 / 0.53 / 0.41 / 0.35 / 0.46 / 0.44 | 1 of 18 (2.30) |
| S25L+S26E+V29Y+L30N+W56N | 0.15 / 0.47 / 0.06 / 0.05 / 0.05 / 0.34 | 1 of 18 (4.12) |
| K24H+S25L+Q27P+W56N+S62D | -0.29 / -0.33 / -0.45 / -0.54 / -0.41 / -0.39 | 0 of 18 |
| Q27I+V29Y+R34A+W56N+A57G | 0.30 / 0.44 / 0.34 / 0.08 / 0.18 / 0.26 | 0 of 18 |
| S25L+S26M+W56H+T59L+S62D | 0.45 / 0.08 / 0.12 / 0.04 / 0.13 / 0.23 | 1 of 18 (3.19) |
| S25V+Q27I+V29Y+W56E | 0.30 / -0.03 / -0.12 / -0.24 / -0.12 / -0.11 | 1 of 18 (2.51) |
| Q27I+V29Y+R34M+W56N | 0.03 / -0.17 / 0.06 / -0.02 / -0.20 / 0.04 | 0 of 18 |
| S25Q+V29F+R34V+W56D | 0.08 / -0.07 / -0.09 / -0.31 / -0.20 / -0.04 | 1 of 18 (2.45) |
| K24S+S25L+S26M+W56H+T59L+S62V | 1.18 / 1.40 / 0.79 / 2.24 / 1.21 / 1.91 | 0 of 18 |
| S25F+S26G+S28G+K36W+W56G | 0.15 / 0.06 / 0.05 / -0.08 / -0.01 / 0.09 | 0 of 18 |
| S25L+V29F+K36V+W56G | -0.06 / -0.11 / -0.33 / -0.24 / -0.22 / -0.19 | 0 of 18 |
| K24H+V29E+W56N+T59Q | 0.00 / -0.26 / -0.21 / -0.14 / -0.13 / 0.10 | 0 of 18 |
| K24H+Q27P+K36G+W56N+S62W | 0.62 / 0.71 / 0.57 / 0.73 / 0.83 / 0.63 | 1 of 18 (2.98) |
| Q27I+V29D+N35M+W56E | 0.16 / 0.01 / -0.15 / -0.27 / 0.13 / 0.22 | 3 of 18 (2.75) |
| K24H+S25L+Q27D+V29E+W56N+S103N | 0.57 / 0.43 / 0.60 / 0.70 / 0.57 / 0.56 | 0 of 18 |
| S25F+V29W+Y31M+W56E+E61Q | -0.20 / -0.48 / -0.47 / -0.53 / -0.51 / -0.36 | 1 of 18 (2.64) |
| S25L+S26E+V29I+L30G+W56N | 0.99 / 0.58 / 0.80 / 0.75 / 0.78 / 1.28 | 2 of 18 (2.47) |
| S25F+V29W+W56G+S103I | -0.19 / -0.16 / -0.15 / -0.26 / -0.21 / -0.13 | 0 of 18 |
| S25L+S26Q+V29Q+L30G+W56H+S62D | 0.22 / 0.44 / 0.27 / -0.06 / 0.45 / 0.47 | 0 of 18 |
| S25F+Q27P+V29E+N35T+W56N | -0.07 / -0.06 / -0.17 / -0.37 / -0.18 / 0.01 | 0 of 18 |
| Q27I+V29D+Y31I+W56E | -0.03 / -0.33 / -0.47 / -0.15 / -0.32 / 0.01 | 2 of 18 (1.76) |

Of ten entries with the parent sequence, four were seen in most replicates (averages 0.34 to 2.37), three in one and three in none, so single entries are noisy. In the paper, a design with two or fewer of six values counts as a poor binder. As a blank, each scFv also met three strains without target: over all light chain designs, 4% of these pairings were detected, typically at 2.64 and seldom below 1.59. For each scFv, signals with the empty controls are counted beside the result, with their mean in brackets. A sequence measured in both rounds can read differently, since the two assays cover different ranges.